PubChem BioAssay AID588726 (The Scripps Research Institute Molecular Screening Center, 2011)
The list shows a part of the results, in another mix than the full data. Some of these compounds have results that are not shown, active ones among them. Active and inactive are the calls of the source. Rule as the data show it: active = inhibition above about 27%; inactive = the rest.

Amino acid sequences for entries named in this document (tags omitted).
UniProt P9WQA3, whole entry: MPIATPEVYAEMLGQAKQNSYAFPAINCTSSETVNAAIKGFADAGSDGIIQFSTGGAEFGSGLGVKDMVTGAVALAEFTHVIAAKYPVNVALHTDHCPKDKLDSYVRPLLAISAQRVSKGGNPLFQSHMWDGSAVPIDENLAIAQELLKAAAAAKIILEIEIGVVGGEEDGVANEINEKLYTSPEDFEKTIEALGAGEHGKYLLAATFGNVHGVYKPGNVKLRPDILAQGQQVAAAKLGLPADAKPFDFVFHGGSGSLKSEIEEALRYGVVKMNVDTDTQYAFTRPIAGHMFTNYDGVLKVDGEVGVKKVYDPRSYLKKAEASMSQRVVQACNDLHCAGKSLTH

What follows are compounds tested against Fructose-bisphosphate aldolase (Mycobacterium tuberculosis (strain ATCC 25618 / H37Rv)) (UniProt P9WQA3) (assay: M. tuberculosis aldolase activity blockers – biochemical, fluorescence, strain H37Rv, primary screen (AID 588726;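 also: 0% = vehicle and 100% = reference inhibitor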)). Conditions: purified M. tuberculosis FBA, fluorescence read-out; at 1 µM; hits give high values.

**Q.** With Cc1ccc(C(=O)NCC2(N3CCCCC3)CCCCC2)cc1 as the compound, how does the inhibition read?
**A.** The inhibition was inactive: -2.05%.

**Q.** Which inhibition does the source give for CC(C)N1C(=O)CC2(CCN(CCOC(=O)C(O)(c3ccccc3)c3ccccc3)CC2)C1=O here?
**A.** Its inhibition is inactive: 5.06%.

**Q.** CCN(CC)CC(C)C(C)OC(=O)C(O)(c1ccccc1)c1ccccc1 (stereo unspecified) was tested. Which inhibition did it give?
**A.** Its inhibition is inactive: 2.68%.

**Q.** With COc1cc(SC)ccc1C(=O)NCC1(N(C)C)CCCCC1 as the compound, how does the inhibition read?
**A.** The inhibition was inactive: 2.6%.

**Q.** For CN1[C@@H]2CC[C@H]1CC(OC(=O)C(O)(c1ccccc1)c1ccccc1)C2 (stereo partly specified), which inhibition is on record?
**A.** Its inhibition is inactive: 0.91%.

**Q.** With O=C(NCC1(N2CCCCC2)CCCCC1)c1cc([N+](=O)[O-])ccc1Cl as the compound, how does the inhibition read?
**A.** The inhibition was inactive: -1.93%.

**Q.** For Cc1cc(C(=O)NCC2(N3CCCCC3)CCCCC2)ccc1[N+](=O)[O-], which inhibition is on record?
**A.** The inhibition was inactive: -0.33%.

**Q.** With CCN1CCCC(OC(=O)C2(O)c3ccccc3C=Cc3ccccc32)C1 (stereo unspecified) as the compound, how does the inhibition read?
**A.** Its inhibition is inactive: 5.57%.

**Q.** With O=C(NCC1(N2CCCCC2)CCCCC1)c1cccc(Br)c1 as the compound, how does the inhibition read?
**A.** Its inhibition is inactive: 0.77%.

**Q.** How did the inhibition turn out when COc1ccc(C(=O)NCC2(N(C)C)CCCCC2)cc1 was run?
**A.** Its inhibition is inactive: 0.59%.

**Q.** C=CCN1CCN(CCOC(=O)C(O)(c2ccccc2)c2ccccc2)CC1 was tested. Which inhibition did it give?
**A.** Its inhibition is inactive: 1.81%.

**Q.** For O=C(NCC1(N2CCCCC2)CCCCC1)c1cc(F)c(F)cc1Cl, which inhibition is on record?
**A.** The inhibition was inactive: 1.17%.

**Q.** Which inhibition does the source give for Cc1ccccc1C(=O)NCC1(N2CCCCC2)CCCCC1 here?
**A.** The inhibition was inactive: -8.75%.

**Q.** Which inhibition does the source give for CN(C)C1CCCC1OC(=O)C(O)(c1ccccc1)c1ccccc1 (stereo unspecified) here?
**A.** Its inhibition is inactive: 1.19%.

**Q.** For CN(C)c1ccc(C(=O)NCC2(N(C)C)CCCCC2)cc1, which inhibition is on record?
**A.** The inhibition was inactive: -0.15%.

**Q.** With O=C(NCC1(N2CCCCC2)CCCCC1)c1cccc(Cl)c1 as the compound, how does the inhibition read?
**A.** The inhibition was inactive: 0.44%.

**Q.** For COc1cccc(C(=O)NCC2(N3CCCCC3)CCCCC2)c1, which inhibition is on record?
**A.** Its inhibition is inactive: 1.89%.

**Q.** Which inhibition does the source give for COc1ccc(Cl)cc1C(=O)NCC1(N(C)C)CCCCC1 here?
**A.** The inhibition was inactive: 0.49%.

**Q.** How did the inhibition turn out when COc1cc(C(=O)NCC2(N(C)C)CCCCC2)c([N+](=O)[O-])cc1OC was run?
**A.** Its inhibition is inactive: 0.32%.

**Q.** For CN(C)C1(CNC(=O)c2ccc(Br)cc2)CCCCC1, which inhibition is on record?
**A.** Its inhibition is inactive: 0.74%.

**Q.** How did the inhibition turn out when CN(C)c1cccc(C(=O)NCC2(N(C)C)CCCCC2)c1 was run?
**A.** Its inhibition is inactive: 3.66%.

**Q.** With CC(C)Oc1ccc(C(=O)NCC2(N(C)C)CCCCC2)cc1 as the compound, how does the inhibition read?
**A.** The inhibition was inactive: 0.97%.

**Q.** O=C(OCCN1CCCC1)C(O)(c1ccccc1)c1ccccc1 was tested. Which inhibition did it give?
**A.** Its inhibition is inactive: -0.83%.

**Q.** COc1ccc(Br)c(C(=O)NCC2(N3CCCCC3)CCCCC2)c1 was tested. Which inhibition did it give?
**A.** Its inhibition is inactive: -2.75%.

**Q.** C=C(C)C#CC(O)(C(=O)OC1CCN(C)CC1)c1ccccc1 (stereo unspecified) was tested. Which inhibition did it give?
**A.** The inhibition was inactive: 3.31%.

**Q.** For O=C(OC1CN2CCC1CC2)C(CO)(c1ccccc1)c1ccccc1 (stereo unspecified), which inhibition is on record?
**A.** Its inhibition is inactive: 3.06%.
